We go through one molecule from US20130273052A1 (Alexion, published 2013).

Chains of the proteins cited; added tags and fusions are not shown. Chains listed by the source or under a name are the forms on record and can include a tag or linker.
human complement component C5 protein, one chain, as listed by the source, chain 2 of 2: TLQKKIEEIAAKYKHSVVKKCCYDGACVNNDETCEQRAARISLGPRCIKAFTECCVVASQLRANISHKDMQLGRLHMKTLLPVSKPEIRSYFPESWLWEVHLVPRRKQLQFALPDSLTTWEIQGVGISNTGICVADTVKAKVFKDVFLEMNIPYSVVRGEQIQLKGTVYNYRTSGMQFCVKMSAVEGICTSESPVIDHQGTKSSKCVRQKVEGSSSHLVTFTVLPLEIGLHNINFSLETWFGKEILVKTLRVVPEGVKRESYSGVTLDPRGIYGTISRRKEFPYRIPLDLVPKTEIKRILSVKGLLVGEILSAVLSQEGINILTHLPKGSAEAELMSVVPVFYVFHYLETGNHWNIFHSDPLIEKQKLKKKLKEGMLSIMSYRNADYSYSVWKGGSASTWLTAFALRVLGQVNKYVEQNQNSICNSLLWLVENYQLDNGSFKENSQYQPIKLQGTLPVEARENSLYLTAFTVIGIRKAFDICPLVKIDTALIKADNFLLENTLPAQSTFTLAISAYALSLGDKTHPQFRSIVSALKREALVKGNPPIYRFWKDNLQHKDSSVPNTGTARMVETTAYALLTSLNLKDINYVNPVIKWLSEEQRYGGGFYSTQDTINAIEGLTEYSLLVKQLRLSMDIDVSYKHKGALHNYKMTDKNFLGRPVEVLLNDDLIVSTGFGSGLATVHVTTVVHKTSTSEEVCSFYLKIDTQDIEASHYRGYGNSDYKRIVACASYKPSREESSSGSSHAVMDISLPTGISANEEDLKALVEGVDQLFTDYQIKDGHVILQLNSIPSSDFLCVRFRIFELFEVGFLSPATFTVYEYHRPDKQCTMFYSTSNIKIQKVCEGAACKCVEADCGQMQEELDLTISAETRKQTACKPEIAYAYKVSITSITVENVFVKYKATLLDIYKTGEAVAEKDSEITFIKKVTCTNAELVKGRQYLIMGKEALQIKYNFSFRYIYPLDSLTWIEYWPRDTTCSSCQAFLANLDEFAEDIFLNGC

The target in experiment [1] is human complement component C5 protein (human). Briefly: Biacore 3000 SPR, under similar conditions to R38Q scFv (scFv immobilised, C5 as analyte). A general note: SPR reads the build-up and loss of mass on a sensor chip optically.
The target is the same in experiment [2]. Put plainly: cell-based or functional assay.

B1: pexelizumab (scFv, V domains shown)
VH: QVQLVQSGAEVKKPGASVKVSCKASGYIFSNYWIQWVRQAPGQGLEWMGEILPGSGSTEYTENFKDRVTMTRDTSTSTVYMELSSLRSEDTAVYYCARYFFGSSPNWYFDVWGQGTLVTVSS
VL: DIQMTQSPSSLSASVGDRVTITCGASENIYGALNWYQRKPGKAPKLLIYGATNLADGVPSRFSGSGSGTDFTLTISSLQPEDFATYYCQNVLNTPLTFGQGTKVEIK
For orientation: Kd means a measure of binding affinity in units of concentration. A high value points to lower affinity. In experiment [1], B1 registered a Kd of 390 µM. In addition, the “inhibition of chicken erythrocyte hemolysis in about 10% normal human serum (absorbance at 415 nm), IC50” value in experiment [2] was about 2 µg/mL.
